Assay results published in patent US20250297220A1, “IMMUNE-ACTIVATING COMPLEXES” (Dynamic Cell Therapies, Inc., priority 2022, published 2025).

Experiment: Molar absorptivities at 280 nm and 493 nm
Type: physicochemical
Protocol: UV-vis absorption profiles were obtained for compound 7-functionalized antibodies, unfunctionalized antibodies, and free compound 7. FIG. 47 provides the results of these analyses. Molar absorptivities (8) were determined for the anti-BCMA antibody at 280 nm (primarily corresponding tyrosine and tryptophan absorbances from the anti-BCMA antibody) and at 493 nm for maleimide fluorescein and 5 (6)-carboxy fluorescein (primarily corresponding to the HOMO to LUMO transition within the fluorescein x-system), and are summarized in Table 18. As the unfunctionalized antibody minimally absorbed around 493 nm, absorbance in this region is quantitative for fluorescein concentration.

Substance: 5(6)-Carboxy Fluorescein
- ε280 nm (molar absorptivity at 280 nm): 14752 M⁻¹ cm⁻¹
- ε493nm (molar absorptivity at 493 nm): 79828 M⁻¹ cm⁻¹
